By UniProt entry, the sequences of proteins in these tests, tags left out. Where a name states a change or a piece, a line headed by the entry shows the natural chain unless it says otherwise. Residues count along the entry.
UniProt P16591: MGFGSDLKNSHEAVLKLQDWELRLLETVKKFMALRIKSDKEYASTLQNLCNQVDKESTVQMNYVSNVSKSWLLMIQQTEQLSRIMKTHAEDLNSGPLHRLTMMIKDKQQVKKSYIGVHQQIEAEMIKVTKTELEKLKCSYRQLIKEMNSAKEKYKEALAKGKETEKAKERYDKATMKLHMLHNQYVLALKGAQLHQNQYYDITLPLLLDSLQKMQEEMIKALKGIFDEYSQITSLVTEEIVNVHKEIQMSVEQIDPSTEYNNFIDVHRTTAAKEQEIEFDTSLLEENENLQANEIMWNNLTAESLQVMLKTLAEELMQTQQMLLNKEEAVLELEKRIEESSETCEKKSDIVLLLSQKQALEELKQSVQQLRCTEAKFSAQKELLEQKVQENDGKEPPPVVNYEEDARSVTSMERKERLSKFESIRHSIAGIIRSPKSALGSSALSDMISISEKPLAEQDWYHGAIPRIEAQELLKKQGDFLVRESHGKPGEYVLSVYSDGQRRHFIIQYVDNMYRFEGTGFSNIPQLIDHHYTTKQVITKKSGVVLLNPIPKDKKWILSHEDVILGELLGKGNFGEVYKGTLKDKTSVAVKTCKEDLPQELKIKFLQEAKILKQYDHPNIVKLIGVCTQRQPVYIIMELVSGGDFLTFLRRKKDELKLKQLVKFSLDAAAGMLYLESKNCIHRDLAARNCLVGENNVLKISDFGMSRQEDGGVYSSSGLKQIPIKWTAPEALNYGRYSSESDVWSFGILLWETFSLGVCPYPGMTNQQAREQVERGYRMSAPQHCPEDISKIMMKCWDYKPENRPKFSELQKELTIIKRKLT
UniProt O43283: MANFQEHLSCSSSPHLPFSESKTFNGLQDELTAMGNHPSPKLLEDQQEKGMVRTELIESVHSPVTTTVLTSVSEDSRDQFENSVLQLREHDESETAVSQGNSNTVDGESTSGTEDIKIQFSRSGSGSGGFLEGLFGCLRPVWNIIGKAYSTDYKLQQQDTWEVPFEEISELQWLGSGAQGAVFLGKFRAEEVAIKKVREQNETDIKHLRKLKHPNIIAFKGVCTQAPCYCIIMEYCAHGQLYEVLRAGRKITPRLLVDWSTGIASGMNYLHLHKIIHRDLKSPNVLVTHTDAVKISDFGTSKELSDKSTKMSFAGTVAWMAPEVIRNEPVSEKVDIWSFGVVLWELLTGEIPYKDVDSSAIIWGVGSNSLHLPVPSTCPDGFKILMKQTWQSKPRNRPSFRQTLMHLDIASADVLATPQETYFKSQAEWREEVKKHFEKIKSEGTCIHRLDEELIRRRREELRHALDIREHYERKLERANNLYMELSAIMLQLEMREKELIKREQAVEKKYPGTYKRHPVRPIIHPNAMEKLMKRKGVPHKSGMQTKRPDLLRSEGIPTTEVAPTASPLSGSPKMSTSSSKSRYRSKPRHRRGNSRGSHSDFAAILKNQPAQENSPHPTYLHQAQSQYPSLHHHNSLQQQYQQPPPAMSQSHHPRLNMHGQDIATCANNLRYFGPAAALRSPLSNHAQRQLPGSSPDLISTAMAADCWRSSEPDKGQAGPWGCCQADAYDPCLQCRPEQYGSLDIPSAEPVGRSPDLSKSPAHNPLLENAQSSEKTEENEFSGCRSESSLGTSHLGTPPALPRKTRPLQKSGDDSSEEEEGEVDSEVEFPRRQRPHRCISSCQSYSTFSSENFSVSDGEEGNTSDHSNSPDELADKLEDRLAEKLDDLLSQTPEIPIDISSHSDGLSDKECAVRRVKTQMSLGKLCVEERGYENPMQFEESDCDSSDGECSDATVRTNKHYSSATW
UniProt Q9UQB9: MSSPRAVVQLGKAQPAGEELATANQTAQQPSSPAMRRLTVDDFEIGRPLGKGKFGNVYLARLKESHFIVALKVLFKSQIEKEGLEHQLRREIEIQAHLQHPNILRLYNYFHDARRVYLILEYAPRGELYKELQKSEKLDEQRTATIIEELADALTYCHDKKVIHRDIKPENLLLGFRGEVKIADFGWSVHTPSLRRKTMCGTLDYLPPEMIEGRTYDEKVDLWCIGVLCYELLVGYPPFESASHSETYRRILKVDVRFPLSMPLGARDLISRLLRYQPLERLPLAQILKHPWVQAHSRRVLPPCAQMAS
UniProt Q9Y6M4: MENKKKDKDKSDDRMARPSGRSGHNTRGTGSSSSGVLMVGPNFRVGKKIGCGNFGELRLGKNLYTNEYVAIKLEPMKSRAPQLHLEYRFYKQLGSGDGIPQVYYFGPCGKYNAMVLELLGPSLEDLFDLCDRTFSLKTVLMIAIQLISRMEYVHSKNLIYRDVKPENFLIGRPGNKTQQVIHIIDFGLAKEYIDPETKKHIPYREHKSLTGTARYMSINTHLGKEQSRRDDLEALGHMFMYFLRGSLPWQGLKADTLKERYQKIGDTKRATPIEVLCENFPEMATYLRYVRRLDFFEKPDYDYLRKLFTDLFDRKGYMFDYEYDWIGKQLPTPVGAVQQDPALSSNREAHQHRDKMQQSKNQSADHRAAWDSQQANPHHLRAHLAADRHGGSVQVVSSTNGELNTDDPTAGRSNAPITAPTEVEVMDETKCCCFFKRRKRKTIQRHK
UniProt Q59H18: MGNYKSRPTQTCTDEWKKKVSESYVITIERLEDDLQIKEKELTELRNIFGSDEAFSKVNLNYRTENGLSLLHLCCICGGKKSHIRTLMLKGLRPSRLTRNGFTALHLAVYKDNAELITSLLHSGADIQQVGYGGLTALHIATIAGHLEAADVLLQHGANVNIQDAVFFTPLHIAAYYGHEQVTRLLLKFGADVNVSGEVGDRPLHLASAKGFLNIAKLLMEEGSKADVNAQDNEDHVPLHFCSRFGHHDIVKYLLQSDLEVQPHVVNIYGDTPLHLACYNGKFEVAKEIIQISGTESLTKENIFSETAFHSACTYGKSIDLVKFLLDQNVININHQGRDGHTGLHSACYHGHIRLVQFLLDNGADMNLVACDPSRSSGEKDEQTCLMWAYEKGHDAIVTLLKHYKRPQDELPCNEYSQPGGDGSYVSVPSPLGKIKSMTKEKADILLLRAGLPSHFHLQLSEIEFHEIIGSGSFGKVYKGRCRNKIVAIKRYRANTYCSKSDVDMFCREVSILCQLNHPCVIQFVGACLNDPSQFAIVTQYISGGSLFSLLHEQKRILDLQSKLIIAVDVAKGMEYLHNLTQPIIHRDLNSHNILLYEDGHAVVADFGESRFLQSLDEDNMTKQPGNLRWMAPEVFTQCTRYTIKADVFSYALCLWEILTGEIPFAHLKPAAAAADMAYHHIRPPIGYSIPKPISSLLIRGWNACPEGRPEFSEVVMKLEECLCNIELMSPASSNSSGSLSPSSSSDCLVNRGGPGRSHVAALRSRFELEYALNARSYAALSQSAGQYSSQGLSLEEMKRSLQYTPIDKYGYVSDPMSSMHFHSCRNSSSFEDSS
UniProt P11362, 22-822: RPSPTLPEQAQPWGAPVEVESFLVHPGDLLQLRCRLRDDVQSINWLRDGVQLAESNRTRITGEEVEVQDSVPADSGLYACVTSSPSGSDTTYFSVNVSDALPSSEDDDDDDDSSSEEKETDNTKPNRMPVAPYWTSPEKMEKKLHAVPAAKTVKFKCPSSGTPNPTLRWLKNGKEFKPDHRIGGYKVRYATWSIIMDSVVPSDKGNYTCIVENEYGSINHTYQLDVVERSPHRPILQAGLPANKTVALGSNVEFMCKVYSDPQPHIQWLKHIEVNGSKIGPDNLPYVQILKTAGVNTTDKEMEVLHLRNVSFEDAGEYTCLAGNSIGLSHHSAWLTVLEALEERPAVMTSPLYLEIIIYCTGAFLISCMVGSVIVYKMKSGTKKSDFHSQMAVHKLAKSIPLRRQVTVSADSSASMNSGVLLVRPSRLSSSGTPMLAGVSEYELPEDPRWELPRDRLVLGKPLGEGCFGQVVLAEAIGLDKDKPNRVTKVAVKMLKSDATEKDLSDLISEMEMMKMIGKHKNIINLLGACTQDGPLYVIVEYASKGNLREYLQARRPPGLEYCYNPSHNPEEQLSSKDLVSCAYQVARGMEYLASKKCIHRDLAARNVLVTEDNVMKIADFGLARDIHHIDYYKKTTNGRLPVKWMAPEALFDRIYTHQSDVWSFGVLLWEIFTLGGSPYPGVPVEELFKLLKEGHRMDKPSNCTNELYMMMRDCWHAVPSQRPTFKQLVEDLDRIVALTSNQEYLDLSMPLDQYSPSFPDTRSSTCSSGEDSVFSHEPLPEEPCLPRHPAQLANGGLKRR
UniProt O00329: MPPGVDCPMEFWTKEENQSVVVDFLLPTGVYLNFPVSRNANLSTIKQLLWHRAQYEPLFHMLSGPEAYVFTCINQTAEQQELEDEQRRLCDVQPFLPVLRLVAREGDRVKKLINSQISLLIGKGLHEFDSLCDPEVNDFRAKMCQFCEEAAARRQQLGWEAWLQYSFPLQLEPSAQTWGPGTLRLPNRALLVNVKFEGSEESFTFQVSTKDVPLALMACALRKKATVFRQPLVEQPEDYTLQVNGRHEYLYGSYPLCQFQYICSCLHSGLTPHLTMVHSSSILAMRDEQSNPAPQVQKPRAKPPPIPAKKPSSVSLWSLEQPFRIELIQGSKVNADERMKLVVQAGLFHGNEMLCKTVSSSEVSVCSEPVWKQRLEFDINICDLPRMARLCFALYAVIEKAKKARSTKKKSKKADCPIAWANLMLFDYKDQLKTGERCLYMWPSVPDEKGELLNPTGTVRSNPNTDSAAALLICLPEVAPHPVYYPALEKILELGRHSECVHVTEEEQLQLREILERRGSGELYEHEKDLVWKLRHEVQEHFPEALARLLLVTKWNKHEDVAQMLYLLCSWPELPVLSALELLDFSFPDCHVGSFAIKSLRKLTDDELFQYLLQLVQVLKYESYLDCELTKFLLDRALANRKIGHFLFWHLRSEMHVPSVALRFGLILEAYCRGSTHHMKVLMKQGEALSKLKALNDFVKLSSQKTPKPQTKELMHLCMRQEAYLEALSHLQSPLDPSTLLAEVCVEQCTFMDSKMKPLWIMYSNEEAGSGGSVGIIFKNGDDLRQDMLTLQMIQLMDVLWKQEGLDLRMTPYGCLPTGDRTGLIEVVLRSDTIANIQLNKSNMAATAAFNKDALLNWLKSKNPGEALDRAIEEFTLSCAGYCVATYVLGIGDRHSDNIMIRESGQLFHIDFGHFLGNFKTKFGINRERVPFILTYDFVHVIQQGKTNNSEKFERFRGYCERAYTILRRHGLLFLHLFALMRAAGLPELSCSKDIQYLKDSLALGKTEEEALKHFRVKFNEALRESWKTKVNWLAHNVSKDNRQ
UniProt P78356: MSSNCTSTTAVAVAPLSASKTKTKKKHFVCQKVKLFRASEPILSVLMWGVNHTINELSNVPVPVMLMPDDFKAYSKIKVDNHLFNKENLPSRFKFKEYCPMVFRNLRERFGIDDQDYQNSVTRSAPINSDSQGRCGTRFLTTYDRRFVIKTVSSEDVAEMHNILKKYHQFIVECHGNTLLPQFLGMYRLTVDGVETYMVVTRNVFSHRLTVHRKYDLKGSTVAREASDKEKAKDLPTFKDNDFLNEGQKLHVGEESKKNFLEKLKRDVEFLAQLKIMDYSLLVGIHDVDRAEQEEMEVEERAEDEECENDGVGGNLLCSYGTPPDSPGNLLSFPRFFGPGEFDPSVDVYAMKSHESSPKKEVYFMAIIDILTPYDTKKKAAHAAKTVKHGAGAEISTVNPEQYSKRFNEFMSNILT
UniProt Q07002: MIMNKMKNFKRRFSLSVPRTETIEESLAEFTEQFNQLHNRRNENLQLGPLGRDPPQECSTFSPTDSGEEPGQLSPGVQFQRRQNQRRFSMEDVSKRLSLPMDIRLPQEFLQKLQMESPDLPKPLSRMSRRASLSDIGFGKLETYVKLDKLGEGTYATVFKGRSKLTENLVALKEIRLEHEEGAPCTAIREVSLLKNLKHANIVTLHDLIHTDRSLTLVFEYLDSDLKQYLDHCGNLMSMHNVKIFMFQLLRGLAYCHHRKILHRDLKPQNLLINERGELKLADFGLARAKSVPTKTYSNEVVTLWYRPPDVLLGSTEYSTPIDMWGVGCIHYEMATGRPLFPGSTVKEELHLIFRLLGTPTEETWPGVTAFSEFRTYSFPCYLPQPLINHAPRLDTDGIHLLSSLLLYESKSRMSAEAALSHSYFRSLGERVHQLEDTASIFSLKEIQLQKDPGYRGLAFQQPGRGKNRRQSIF
UniProt Q96NX5: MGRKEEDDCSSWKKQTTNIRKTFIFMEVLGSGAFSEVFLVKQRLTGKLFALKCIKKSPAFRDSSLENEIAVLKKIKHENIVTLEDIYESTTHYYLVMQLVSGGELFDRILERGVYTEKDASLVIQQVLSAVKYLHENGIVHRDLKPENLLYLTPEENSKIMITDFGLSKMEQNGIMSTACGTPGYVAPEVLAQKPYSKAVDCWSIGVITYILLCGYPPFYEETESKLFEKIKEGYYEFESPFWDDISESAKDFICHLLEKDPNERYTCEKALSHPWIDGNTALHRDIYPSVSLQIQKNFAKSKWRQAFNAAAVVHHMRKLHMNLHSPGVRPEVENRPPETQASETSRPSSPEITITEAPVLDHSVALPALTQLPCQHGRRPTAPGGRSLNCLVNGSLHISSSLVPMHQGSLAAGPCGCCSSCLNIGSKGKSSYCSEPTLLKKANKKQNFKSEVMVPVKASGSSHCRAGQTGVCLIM

In PMC11472320, “Computationally Driven Discovery of a BCR-ABL1 Kinase Inhibitor with Activity in Multidrug-Resistant Chronic Myeloid Leukemia” (Journal of Medicinal Chemistry, 2024):

How the values were obtained:
CSF1R-autoinhibited = CSF1R-autoinhibited (Homo sapiens, UniProt P07333); assay: biochemical; details: read-out: Percent Control
FLT3(R834Q) = FLT3(R834Q) (Homo sapiens, UniProt P36888, R834Q); assay: biochemical; details: read-out: Percent Control
FER = FER (Homo sapiens, UniProt P16591); assay: biochemical; details: read-out: Percent Control
VEGFR2 = VEGFR2 (Homo sapiens, UniProt P35968); assay: biochemical; details: read-out: Percent Control
PLK3 = PLK3 (Homo sapiens, UniProt Q9H4B4); assay: biochemical; details: read-out: Percent Control
ALK(C1156Y) = ALK(C1156Y) (Homo sapiens, UniProt Q9UM73, C1156Y); assay: biochemical; details: read-out: Percent Control
CDK4 = CDK4 (Homo sapiens, UniProt P11802); assay: biochemical; details: read-out: Percent Control
GRK1 = GRK1 (Homo sapiens, UniProt Q15835); assay: biochemical; details: read-out: Percent Control
ERBB4 = ERBB4 (Homo sapiens, UniProt Q15303); assay: biochemical; details: read-out: Percent Control
LZK = LZK (Homo sapiens, UniProt O43283); assay: biochemical; details: read-out: Percent Control
AURKC = AURKC (Homo sapiens, UniProt Q9UQB9); assay: biochemical; details: read-out: Percent Control
p38-beta = p38-beta (Homo sapiens, UniProt Q15759); assay: biochemical; details: read-out: Percent Control
MEK4 = MEK4 (Homo sapiens, UniProt P45985); assay: biochemical; details: read-out: Percent Control
EPHB1 = EPHB1 (Homo sapiens, UniProt P54762); assay: biochemical; details: read-out: Percent Control
PKMYT1 = PKMYT1 (Homo sapiens, UniProt Q99640); assay: biochemical; details: read-out: Percent Control
PLK4 = PLK4 (Homo sapiens, UniProt O00444); assay: biochemical; details: read-out: Percent Control
CSNK1G2 = CSNK1G2 (Homo sapiens, UniProt P78368); assay: biochemical; details: read-out: Percent Control
CSNK1G3 = CSNK1G3 (Homo sapiens, UniProt Q9Y6M4); assay: biochemical; details: read-out: Percent Control
WEE2 = WEE2 (Homo sapiens, UniProt P0C1S8); assay: biochemical; details: read-out: Percent Control
TNNI3K = TNNI3K (Homo sapiens, UniProt Q59H18); assay: biochemical; details: read-out: Percent Control
GRK7 = GRK7 (Homo sapiens, UniProt Q8WTQ7); assay: biochemical; details: read-out: Percent Control
IKK-epsilon = IKK-epsilon (Homo sapiens, UniProt Q14164); assay: biochemical; details: read-out: Percent Control
PYK2 = PYK2 (Homo sapiens, UniProt Q14289); assay: biochemical; details: read-out: Percent Control
NEK4 = NEK4 (Homo sapiens, UniProt P51957); assay: biochemical; details: read-out: Percent Control
FGFR1 = FGFR1 (Homo sapiens, UniProt P11362); assay: biochemical; details: read-out: Percent Control
CLK1 = CLK1 (Homo sapiens, UniProt P49759); assay: biochemical; details: read-out: Percent Control
IGF1R = IGF1R (Homo sapiens, UniProt P08069); assay: biochemical; details: read-out: Percent Control
CSK = CSK (Homo sapiens, UniProt P41240); assay: biochemical; details: read-out: Percent Control
LIMK1 = LIMK1 (Homo sapiens, UniProt P53667); assay: biochemical; details: read-out: Percent Control
PIK3CD = PIK3CD (Homo sapiens, UniProt O00329); assay: biochemical; details: read-out: Percent Control
EPHA3 = EPHA3 (Homo sapiens, UniProt P29320); assay: biochemical; details: read-out: Percent Control
CSNK2A2 = CSNK2A2 (Homo sapiens, UniProt P19784); assay: biochemical; details: read-out: Percent Control
PIP5K2B = PIP5K2B (Homo sapiens, UniProt P78356); assay: biochemical; details: read-out: Percent Control
[1] = molecular target: RSK1(Kin.Dom.2-C-terminal) (Homo sapiens, UniProt Q15418); assay: biochemical; details: read-out: Percent Control
WNK3 = WNK3 (Homo sapiens, UniProt Q9BYP7); assay: biochemical; details: read-out: Percent Control
BTK = BTK (Homo sapiens, UniProt Q06187); assay: biochemical; details: read-out: Percent Control
PCTK3 = PCTK3 (Homo sapiens, UniProt Q07002); assay: biochemical; details: read-out: Percent Control
[2] = molecular target: RPS6KA5(Kin.Dom.2-C-terminal) (Homo sapiens, UniProt O75582); assay: biochemical; details: read-out: Percent Control
MAK = MAK (Homo sapiens, UniProt P20794); assay: biochemical; details: read-out: Percent Control
CAMK1G = CAMK1G (Homo sapiens, UniProt Q96NX5); assay: biochemical; details: read-out: Percent Control
LATS1 = LATS1 (Homo sapiens, UniProt O95835); assay: biochemical; details: read-out: Percent Control
EPHA7 = EPHA7 (Homo sapiens, UniProt Q15375); assay: biochemical; details: read-out: Percent Control

For COc1cc2c(Nc3ccc(Cl)c(OC)n3)c(C#N)cnc2cc1OCCON1CCN(C)CC1 [16a, 4-((5-Chloro-6-methoxypyridin-2-yl)amino)-6-methoxy-7-(2-((4-methylpiperazin-1-yl)oxy)ethoxy)quinoline-3-carbonitrile], the “Percent Control” value (FLT3(ITD,D835V)) was 2.6, the remaining activity at 1 µM (CSF1R-autoinhibited) was 65% and the remaining activity at 1 µM (FLT3(R834Q)) was 35%. For the same compound, the remaining activity at 1 µM (FER) was 13%, the remaining activity at 1 µM (VEGFR2) was 84% and the remaining activity at 1 µM (PLK3) was 90%. The remaining activity at 1 µM (ALK(C1156Y)) was 31%, the remaining activity at 1 µM (CDK4) was 100% and the remaining activity at 1 µM (GRK1) was 64%. The remaining activity at 1 µM (ERBB4) was 0.65%, the remaining activity at 1 µM (LZK) was 92% and the remaining activity at 1 µM (AURKC) was 61%. It also gave a remaining activity at 1 µM (p38-beta) of 97%, a remaining activity at 1 µM (MEK4) of 100% and a remaining activity at 1 µM (EPHB1) of 13%. The remaining activity at 1 µM (PKMYT1) was 18%, the remaining activity at 1 µM (PLK4) was 99% and the remaining activity at 1 µM (CSNK1G2) was 92%. For the same compound, the remaining activity at 1 µM (CSNK1G3) was 97%, the remaining activity at 1 µM (WEE2) was 1.1% and the remaining activity at 1 µM (TNNI3K) was 30%. It also gave a remaining activity at 1 µM (GRK7) of 61%, a remaining activity at 1 µM (IKK-epsilon) of 38% and a remaining activity at 1 µM (PYK2) of 55%. It also gave a remaining activity at 1 µM (NEK4) of 38%, a remaining activity at 1 µM (FGFR1) of 77% and a remaining activity at 1 µM (CLK1) of 24%. For the same compound, the remaining activity at 1 µM (IGF1R) was 96%, the remaining activity at 1 µM (CSK) was 0.8% and the remaining activity at 1 µM (LIMK1) was 97%. It also gave a remaining activity at 1 µM (PIK3CD) of 74%, a remaining activity at 1 µM (EPHA3) of 7.3% and a remaining activity at 1 µM (CSNK2A2) of 76%. The remaining activity at 1 µM (PIP5K2B) was 10%, the remaining activity at 1 µM [1] was 81% and the remaining activity at 1 µM (WNK3) was 7.5%. The remaining activity at 1 µM (BTK) was 0.4%, the remaining activity at 1 µM (PCTK3) was 99% and the remaining activity at 1 µM [2] was 84%. For the same compound, the remaining activity at 1 µM (MAK) was 100%, the remaining activity at 1 µM (CAMK1G) was 29% and the remaining activity at 1 µM (LATS1) was 100%. It also gave a remaining activity at 1 µM (EPHA7) of 96%.
